The results in this text go back to PubChem BioAssay AID2073 (Sanford-Burnham Center for Chemical Genomics, 2009).

Protein sequences, listed by entry. Tags and fused reporters are not part of them.
UniProt Q00975, whole entry: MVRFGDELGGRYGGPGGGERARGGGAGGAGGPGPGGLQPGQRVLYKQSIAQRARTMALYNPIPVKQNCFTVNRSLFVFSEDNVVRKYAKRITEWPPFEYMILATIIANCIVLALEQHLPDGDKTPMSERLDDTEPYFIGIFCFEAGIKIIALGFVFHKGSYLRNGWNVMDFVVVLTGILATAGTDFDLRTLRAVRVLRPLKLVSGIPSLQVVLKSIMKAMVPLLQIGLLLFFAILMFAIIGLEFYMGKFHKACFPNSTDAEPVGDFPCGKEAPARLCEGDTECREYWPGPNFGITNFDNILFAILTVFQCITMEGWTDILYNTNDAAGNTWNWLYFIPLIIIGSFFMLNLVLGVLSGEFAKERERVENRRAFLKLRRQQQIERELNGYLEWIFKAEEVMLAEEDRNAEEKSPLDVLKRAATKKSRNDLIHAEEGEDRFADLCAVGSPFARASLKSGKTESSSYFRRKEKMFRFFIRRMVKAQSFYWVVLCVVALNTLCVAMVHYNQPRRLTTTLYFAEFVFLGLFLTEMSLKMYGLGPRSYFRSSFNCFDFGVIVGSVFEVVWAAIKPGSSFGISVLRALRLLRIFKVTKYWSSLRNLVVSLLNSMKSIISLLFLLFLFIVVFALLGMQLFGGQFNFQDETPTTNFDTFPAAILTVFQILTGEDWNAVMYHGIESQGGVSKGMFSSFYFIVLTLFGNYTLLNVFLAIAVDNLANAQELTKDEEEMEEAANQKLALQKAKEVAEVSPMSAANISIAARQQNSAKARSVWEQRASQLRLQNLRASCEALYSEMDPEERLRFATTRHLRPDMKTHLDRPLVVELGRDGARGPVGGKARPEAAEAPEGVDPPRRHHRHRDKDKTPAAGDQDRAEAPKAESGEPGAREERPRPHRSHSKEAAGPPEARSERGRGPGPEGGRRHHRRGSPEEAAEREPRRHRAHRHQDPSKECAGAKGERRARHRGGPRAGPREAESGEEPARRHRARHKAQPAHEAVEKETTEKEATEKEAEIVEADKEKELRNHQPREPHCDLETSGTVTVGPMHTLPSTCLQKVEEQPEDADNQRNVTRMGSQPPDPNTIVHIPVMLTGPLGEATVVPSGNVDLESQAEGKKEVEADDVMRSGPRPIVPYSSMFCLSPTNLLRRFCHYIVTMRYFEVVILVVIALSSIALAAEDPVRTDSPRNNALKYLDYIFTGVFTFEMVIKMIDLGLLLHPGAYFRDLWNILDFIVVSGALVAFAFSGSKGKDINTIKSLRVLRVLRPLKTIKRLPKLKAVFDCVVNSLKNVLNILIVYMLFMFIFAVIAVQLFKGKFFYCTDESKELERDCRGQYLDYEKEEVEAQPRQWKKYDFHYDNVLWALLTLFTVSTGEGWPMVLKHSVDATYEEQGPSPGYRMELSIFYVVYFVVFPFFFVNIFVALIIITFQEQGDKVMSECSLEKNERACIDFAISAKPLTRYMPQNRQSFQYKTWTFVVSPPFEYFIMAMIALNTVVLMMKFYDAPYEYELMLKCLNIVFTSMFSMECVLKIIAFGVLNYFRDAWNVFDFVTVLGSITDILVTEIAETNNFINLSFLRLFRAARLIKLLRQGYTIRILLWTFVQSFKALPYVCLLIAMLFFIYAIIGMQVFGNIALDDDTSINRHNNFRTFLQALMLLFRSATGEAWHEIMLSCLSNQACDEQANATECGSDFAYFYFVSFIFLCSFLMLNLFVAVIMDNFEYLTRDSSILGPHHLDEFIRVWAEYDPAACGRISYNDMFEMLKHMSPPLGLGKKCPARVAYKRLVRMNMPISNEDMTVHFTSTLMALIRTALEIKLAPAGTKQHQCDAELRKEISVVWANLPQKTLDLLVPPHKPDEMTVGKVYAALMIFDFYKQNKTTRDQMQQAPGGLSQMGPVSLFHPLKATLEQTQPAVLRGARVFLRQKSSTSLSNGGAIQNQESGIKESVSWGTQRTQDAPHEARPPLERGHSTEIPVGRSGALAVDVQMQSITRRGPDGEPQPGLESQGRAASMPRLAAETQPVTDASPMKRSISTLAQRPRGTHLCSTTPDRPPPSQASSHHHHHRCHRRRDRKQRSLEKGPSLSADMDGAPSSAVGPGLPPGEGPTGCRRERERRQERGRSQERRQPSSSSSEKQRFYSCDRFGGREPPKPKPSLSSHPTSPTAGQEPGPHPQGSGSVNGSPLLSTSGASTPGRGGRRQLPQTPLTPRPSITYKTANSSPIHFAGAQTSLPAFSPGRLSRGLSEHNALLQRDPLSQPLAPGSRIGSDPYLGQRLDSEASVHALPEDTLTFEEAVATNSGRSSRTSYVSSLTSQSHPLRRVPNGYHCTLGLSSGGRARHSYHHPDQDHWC

Broadly, the inhibition is the relative decrease from the control value, in per cent.

Each structure is given as a SMILES string. Only a part is listed here, and it is no random draw. Potency and affinity values are given separately. Some of these compounds have results that are not shown, active ones among them. Active and inactive are the calls of the source. Cut-off read from the data, not from the text of the source: active = inhibition mostly above about 51% (no sharp cut-off); inconclusive = no clear call, values can overlap the other calls; inactive = mostly below about 53%.

The experiment addresses Voltage-dependent N-type calcium channel subunit alpha-1B (Homo sapiens) (UniProt Q00975). The experiment is described as follows: inhibitors of Mint1-CaV2.2 protein interaction, biochemical, HTRF (AID 2073). Conditions: at 20 µM, hits give high values. For orientation: In TR-FRET formats the signal depends on donor and acceptor labels being close together.
For the compound `O=C(NCC1(N2CCCCC2)CCCCC1)c1cccc(Cl)c1`, the inhibition is inactive: 5.9%.
Then `COc1cccc(C(=O)NCC2(N3CCCCC3)CCCCC2)c1`, with inactive: -8.4%.
For the compound `COc1ccc(Cl)cc1C(=O)NCC1(N(C)C)CCCCC1`, the inhibition was inactive: 22.8%.
For `COc1cc(C(=O)NCC2(N(C)C)CCCCC2)c([N+](=O)[O-])cc1OC` the value was inactive: 14.9%.
On to `CN(C)C1(CNC(=O)c2ccc(Br)cc2)CCCCC1`, for which the inhibition was inactive: 6.9%.
Consider `CN(C)c1cccc(C(=O)NCC2(N(C)C)CCCCC2)c1`, for which the inhibition is inactive: 5.2%.
As for `CC(C)Oc1ccc(C(=O)NCC2(N(C)C)CCCCC2)cc1`, the inhibition is inactive: 5.6%.
In the case of `COc1ccc(Br)c(C(=O)NCC2(N3CCCCC3)CCCCC2)c1`, the inhibition was inactive: 12.8%.
For `O=C(OC1CN2CCC1CC2)C(CO)(c1ccccc1)c1ccccc1` (centres undefined) the value was inactive: -2.8%; for `Cc1ccc(C(=O)NCC2(N3CCCCC3)CCCCC2)cc1`, inactive: 14.7%.
Take `CC(C)N1C(=O)CC2(CCN(CCOC(=O)C(O)(c3ccccc3)c3ccccc3)CC2)C1=O`: the inhibition was inactive: -3.8%.
Turning to `CCN(CC)CC(C)C(C)OC(=O)C(O)(c1ccccc1)c1ccccc1` (centres undefined), the inhibition is inactive: 4.4%.
As for `COc1cc(SC)ccc1C(=O)NCC1(N(C)C)CCCCC1`, the inhibition was inactive: 6.3%.
With `CN1[C@@H]2CC[C@H]1CC(OC(=O)C(O)(c1ccccc1)c1ccccc1)C2` (some centres undefined), the inhibition is inactive: 8.8%.
Turning to `O=C(NCC1(N2CCCCC2)CCCCC1)c1cc([N+](=O)[O-])ccc1Cl`, the inhibition is inactive: -2.6%.
Then `Cc1cc(C(=O)NCC2(N3CCCCC3)CCCCC2)ccc1[N+](=O)[O-]`, with inactive: 7.5%.
`CCN1CCCC(OC(=O)C2(O)c3ccccc3C=Cc3ccccc32)C1` (centres undefined): the inhibition is inactive: 6%.
For `O=C(NCC1(N2CCCCC2)CCCCC1)c1cccc(Br)c1` the value was inactive: 4.4%; for `COc1ccc(C(=O)NCC2(N(C)C)CCCCC2)cc1`, inactive: 8.8%.
Consider `C=CCN1CCN(CCOC(=O)C(O)(c2ccccc2)c2ccccc2)CC1`, for which the inhibition was inactive: 2.5%.
For `O=C(NCC1(N2CCCCC2)CCCCC1)c1cc(F)c(F)cc1Cl`, the inhibition was inactive: 8.4%.
Consider `Cc1ccccc1C(=O)NCC1(N2CCCCC2)CCCCC1`, for which the inhibition was inactive: -4.9%.
For the compound `CN(C)C1CCCC1OC(=O)C(O)(c1ccccc1)c1ccccc1` (centres undefined), the inhibition was inactive: 15.3%.
For `CN(C)c1ccc(C(=O)NCC2(N(C)C)CCCCC2)cc1`, the inhibition was inactive: -6%.
